Measured values reported in BindingDB's records for doi:10.1016/s0024-3205(00)00911-5 (Mayo Foundation, 2000).

Sequences of proteins named here, by UniProt entry; tags and fusion partners are left off.
UniProt P35367, whole entry: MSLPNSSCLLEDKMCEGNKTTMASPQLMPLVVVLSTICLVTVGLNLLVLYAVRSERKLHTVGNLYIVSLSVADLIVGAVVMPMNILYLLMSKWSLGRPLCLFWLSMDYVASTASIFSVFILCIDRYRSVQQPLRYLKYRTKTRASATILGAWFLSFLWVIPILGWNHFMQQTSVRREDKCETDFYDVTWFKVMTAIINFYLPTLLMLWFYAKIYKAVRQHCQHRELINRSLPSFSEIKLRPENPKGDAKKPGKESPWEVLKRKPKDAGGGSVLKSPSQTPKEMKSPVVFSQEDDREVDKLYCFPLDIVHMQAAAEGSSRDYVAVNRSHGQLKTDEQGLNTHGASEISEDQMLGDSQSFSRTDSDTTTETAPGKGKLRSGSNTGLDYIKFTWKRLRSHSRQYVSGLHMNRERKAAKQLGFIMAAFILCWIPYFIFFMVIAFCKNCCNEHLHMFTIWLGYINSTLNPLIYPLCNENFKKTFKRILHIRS
UniProt P28223, whole entry: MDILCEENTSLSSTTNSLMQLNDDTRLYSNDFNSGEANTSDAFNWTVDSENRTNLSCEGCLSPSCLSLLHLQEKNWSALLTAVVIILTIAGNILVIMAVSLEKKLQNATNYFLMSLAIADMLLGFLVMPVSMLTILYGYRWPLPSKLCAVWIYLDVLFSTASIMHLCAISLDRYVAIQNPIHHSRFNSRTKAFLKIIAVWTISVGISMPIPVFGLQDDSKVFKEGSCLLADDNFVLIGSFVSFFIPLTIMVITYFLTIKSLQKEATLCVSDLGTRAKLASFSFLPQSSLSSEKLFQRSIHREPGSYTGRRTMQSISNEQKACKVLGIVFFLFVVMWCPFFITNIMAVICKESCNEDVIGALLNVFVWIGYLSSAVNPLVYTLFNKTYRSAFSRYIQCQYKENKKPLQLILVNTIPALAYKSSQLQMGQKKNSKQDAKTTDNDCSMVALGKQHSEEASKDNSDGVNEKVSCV

Experiments:
Histamine H1 receptor = Histamine H1 receptor (Homo sapiens, UniProt P35367)
[1] = target: T1, Alpha-1A adrenergic receptor (Homo sapiens, UniProt P35348)
T1 sequence (P35348 whole entry): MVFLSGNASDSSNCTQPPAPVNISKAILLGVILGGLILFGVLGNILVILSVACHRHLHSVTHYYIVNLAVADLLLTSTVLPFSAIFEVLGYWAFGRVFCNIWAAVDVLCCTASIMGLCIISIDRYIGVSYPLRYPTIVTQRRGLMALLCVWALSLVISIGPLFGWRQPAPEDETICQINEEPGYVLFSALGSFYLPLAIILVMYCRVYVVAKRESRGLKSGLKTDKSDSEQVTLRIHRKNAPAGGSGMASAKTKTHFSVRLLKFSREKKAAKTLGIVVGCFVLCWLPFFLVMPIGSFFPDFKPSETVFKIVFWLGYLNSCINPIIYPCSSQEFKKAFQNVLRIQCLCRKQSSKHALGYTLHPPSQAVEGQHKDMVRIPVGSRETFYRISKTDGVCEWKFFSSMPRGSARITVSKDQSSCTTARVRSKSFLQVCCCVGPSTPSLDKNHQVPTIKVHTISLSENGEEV

[2] = target: 5-hydroxytryptamine receptor 2A (Homo sapiens, UniProt P28223)

| SMILES | Ki (Histamine H1 receptor) | Ki [1] | Ki [2] |
| --- | --- | --- | --- |
| CN(C)CCOC1=Cc2ccccc2Sc2ccc(Cl)cc21 [2-Chloro-11-(2-(dimethylamino)ethoxy)dibenzo(b,f)thiepin] | 3.3 nM | 7.3 nM |  |
| CN1CCN(C2=c3ccccc3=Nc3ccc(Cl)cc3N2)CC1 [6-chloro-10-(4-methylpiperazin-1-yl)-2,9-diazatricyclo[9.4.0.0^{3,8}]pentadeca-1,3(8),4,6,10,12,14-heptaene] | 3.1 nM |  |  |
| CC1CCN(CCCC(=O)c2ccc(F)cc2)CC1 [CAS_3575-80-2] |  |  | 102 nM |
